# Laboratory results taken from paper PMC8580050, “Improvement of the antimicrobial potency, pharmacokinetic and pharmacodynamic properties of albicidin by incorporation of nitrogen atoms” (Chemical Science, 2021).
# System: narrow selection of bacterial strains
# Details: tested organisms, eight times MIC
compound,measurement,value
"COc1c(NC(=O)c2ccc(NC(=O)c3ccc(NC(=O)[C@H](Cc4c[nH]nn4)NC(=O)c4ccc(NC(=O)/C(C)=C/c5ccc(O)cc5)cc4)cc3)c(OC)c2O)ccc(C(=O)O)c1O [Compound 2, AzaHis-albicidin]",formation of resistance (FoR),10^−10 to 10^−11
